Experimental data as given in patent US5080884A, “Hydrocarbylphenyl diaminodithiol radionuclide complexes and their use in imaging” (Medi-Physics, Inc., priority 1991, dated 1992).
Read-outs that look alike come from different tables or passages of the source.

Legend:
[1] = Biological distribution of Tc-99m complexes in rats (pentobarbital anesthesia); type: in vivo, Female Sprague-Dawley rats; conditions: average of 2 rats; for Blood, % Injected Dose/Gram Tissue / Brain, % Injected Dose/Gram Tissue / Heart, % Injected Dose/Gram Tissue: pentobarbital anesthesia; for Brain:Blood / Heart:Blood: ratio
Protocol: Distribution of the Tc-99m labeled compounds was evaluated in rats. Female Sprague-Dawley rats weighing 140 to 220 g (average 170 g) were anesthetized with sodium pentobarbital and were injected in a tail vein with from 0.05 to 10 mCi of the Tc-99m labeled complex in a volume of 0.2 to 0.5 ml. At least two rats were injected for each time point.
The animals were sacrificed at 5 and 30 minutes after injection and selected organs were removed; the tails were discharged to avoid interference from the injection site. The radioactivity in each organ was measured at a standard geometry with a […] sodium iodide scintillation detector adjusted for the 140 KeV emission of Tc-99m. The organs were also weighed to one hundredth of a gram and the activity was calculated as a percent of administered dose per gram.

[2] = Electrophoresis of Tc-99m complex (NaH2PO4, pH 4.5); type: physicochemical
[3] = 5 min after i.v. (tail vein) injection
[4] = 30 min after i.v. (tail vein) injection

Substance | Blood, % Injected Dose/Gram Tissue [1, 3] | Brain, % Injected Dose/Gram Tissue [1, 3] | Heart, % Injected Dose/Gram Tissue [1, 3] | Blood, % Injected Dose/Gram Tissue [1, 4] | Brain, % Injected Dose/Gram Tissue [1, 4] | Heart, % Injected Dose/Gram Tissue [1, 4] | Brain:Blood ([1]; 5 min after i.v. injection) | Heart:Blood ([1]; 5 min after i.v. injection) | Brain:Blood ([1]; 30 min after i.v. injection) | Heart:Blood ([1]; 30 min after i.v. injection) | Electrophoresis ([2]; 0.05 M NaH2PO4, pH 4.5, 300 volts, 30 min) | Electrophoresis ([2]; 0.5 M NaH2PO4, pH 4.5, 300 volts, 45 min) | Partition coefficient (octanol/H2O NaH2PO4 pH 7.4) | Electrophoresis ([2]; 0.05 M NaH2PO4, pH 4.5, 300 volts, 45 min) | Partition coefficient (1-octanol/0.1 M phosphate buffer pH 7.4)
Tc-99m complex of 2-(2-mercapto-2-methylpropylamino)-1-[2-(2-propynylthio)-2-methylpropylamino]benzene [Example 27] | 0.47 % Injected Dose/Gram Tissue | 0.82 % Injected Dose/Gram Tissue | 5.26 % Injected Dose/Gram Tissue | 0.19 % Injected Dose/Gram Tissue | 0.67 % Injected Dose/Gram Tissue | 3.28 % Injected Dose/Gram Tissue | 1.75 | 11.28 | 3.54 | 17.34 | neutral | – | – | – | –
Tc-99m complex of 2-(2-mercapto-2-methylpropylamino)-1-[2-(4-pentenylthio)-2-methylpropylamino]benzene [Example 7] | 0.20 % Injected Dose/Gram Tissue | 0.44 % Injected Dose/Gram Tissue | 2.64 % Injected Dose/Gram Tissue | 0.12 % Injected Dose/Gram Tissue | 0.48 % Injected Dose/Gram Tissue | 1.33 % Injected Dose/Gram Tissue | 2.17 | 13.00 | 4.11 | 11.36 | – | neutral | – | – | –
Tc-99m complex of 2-(2-mercapto-2-methylpropylamino)-1-[2-ethylthio-2-methylpropylamino]benzene [Example 34] | 0.14 % Injected Dose/Gram Tissue | 0.88 % Injected Dose/Gram Tissue | 2.47 % Injected Dose/Gram Tissue | 0.11 % Injected Dose/Gram Tissue | 0.71 % Injected Dose/Gram Tissue | 1.02 % Injected Dose/Gram Tissue | 6.26 | 17.48 | 6.21 | 8.94 | – | – | 81 | neutral | –
Tc-99m complex of 2-(2-mercapto-2-methylpropylamino)-1-[2-propylthio-2-methylpropylamino]-benzene [Example 23] | 0.35 % Injected Dose/Gram Tissue | 0.75 % Injected Dose/Gram Tissue | 2.43 % Injected Dose/Gram Tissue | 0.23 % Injected Dose/Gram Tissue | 0.69 % Injected Dose/Gram Tissue | 1.01 % Injected Dose/Gram Tissue | 2.11 | 6.86 | 3.06 | 4.44 | – | – | – | – | 33
